# Results: PubChem BioAssay AID440 (NMMLSC, 2006)
# Chains of the proteins cited; added tags and fusions are not shown.
# UniProt P21462, whole entry: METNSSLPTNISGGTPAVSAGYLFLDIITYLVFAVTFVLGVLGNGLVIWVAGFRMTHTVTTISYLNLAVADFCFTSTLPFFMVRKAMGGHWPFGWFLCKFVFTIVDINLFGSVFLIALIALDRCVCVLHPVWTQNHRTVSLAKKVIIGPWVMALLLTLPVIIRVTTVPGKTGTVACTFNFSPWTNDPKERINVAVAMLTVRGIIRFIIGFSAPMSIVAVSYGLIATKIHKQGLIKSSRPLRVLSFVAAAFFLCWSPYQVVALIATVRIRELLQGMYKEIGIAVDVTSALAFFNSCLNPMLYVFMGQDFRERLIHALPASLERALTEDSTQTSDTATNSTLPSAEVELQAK
# The entries are a selection whose mix differs from that of the whole data set. Some tests of the compounds listed are not included; inactive here does not mean inactive elsewhere. Calls of active or inactive are those of the source. Cut-off read from the data, not from the text of the source: active = inhibition above about 30%; inconclusive = no clear call, values can overlap the other calls; inactive = below that.
# Molecular target: fMet-Leu-Phe receptor (Homo sapiens) (UniProt P21462)
# Assay: small molecules displacing FPR fluorescent ligand – cell-based, FPRL1 counter-screen, flow cytometry, primary screen (AID 440);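 note: 0% = buffer wells and 100% = receptor blocker peptide wells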
# Settings: FPR-expressing cells, fluorescent ligand binding, stronger effect = higher value, concentration not given here
row,Structure (SMILES),inhibition
1,O=C(OC1CN2CCC1CC2)C(CO)(c1ccccc1)c1ccccc1 (stereo unspecified),inactive: -5.1%
